The results in this text go back to article PMC6222516, “Comparative Study of Carborane- and Phenyl-Modified Adenosine Derivatives as Ligands for the A2A and A3 Adenosine Receptors Based on a Rigid in Silico Docking and Radioligand Replacement Assay” (Molecules : A Journal of Synthetic Chemistry and Natural …, 2018).

The chains behind the UniProt entries cited, without tags or fusion partners.
UniProt P0DMS8, whole entry: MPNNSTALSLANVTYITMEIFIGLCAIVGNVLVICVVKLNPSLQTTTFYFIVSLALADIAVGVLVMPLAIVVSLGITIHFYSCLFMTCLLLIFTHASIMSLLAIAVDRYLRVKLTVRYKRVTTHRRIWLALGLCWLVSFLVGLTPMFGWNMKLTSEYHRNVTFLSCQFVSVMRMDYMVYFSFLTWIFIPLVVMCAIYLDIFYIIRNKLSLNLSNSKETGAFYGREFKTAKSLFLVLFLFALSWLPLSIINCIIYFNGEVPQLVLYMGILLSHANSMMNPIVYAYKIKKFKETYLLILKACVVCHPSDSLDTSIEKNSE

The target of this test is adenosine A3 receptor (Homo sapiens, UniProt P0DMS8). As to the kind of experiment: Radioligand competition binding assay, adenosine A3 receptor ([3H]-NECA). As to conditions: read-out: % Inhib. 10 μM A3. Background: Loss of bound radioactivity is the signal in a displacement assay; it reports binding, not function.

`Nc1ncnc2c1ncn2[C@@H]1O[C@H](CO)[C@@H](O)[C@H]1O` [Adenosine]: the inhibition at 10 µM stood at 10 ± 1%.
